We go through 1 molecule from patent publication US12630537B2, “Pyridazinone and methods of use thereof” (ALIGOS THERAPEUTICS, INC., priority 2020, dated 2026).

Chains of the proteins cited; added tags and fusions are not shown. Residues count along the entry.
UniProt P10827, 1-410 isoform 2: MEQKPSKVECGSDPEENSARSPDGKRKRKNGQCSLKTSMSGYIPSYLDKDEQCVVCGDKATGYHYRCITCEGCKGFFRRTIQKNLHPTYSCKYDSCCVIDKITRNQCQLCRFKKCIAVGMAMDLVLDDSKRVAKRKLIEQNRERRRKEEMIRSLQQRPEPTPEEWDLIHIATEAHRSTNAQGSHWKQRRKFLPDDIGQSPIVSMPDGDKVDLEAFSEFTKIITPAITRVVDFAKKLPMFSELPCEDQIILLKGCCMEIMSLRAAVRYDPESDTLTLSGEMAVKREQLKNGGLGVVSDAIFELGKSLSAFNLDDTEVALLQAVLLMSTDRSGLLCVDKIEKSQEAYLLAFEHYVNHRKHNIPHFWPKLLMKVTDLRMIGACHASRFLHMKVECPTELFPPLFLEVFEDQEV
UniProt P10827, 163-410 isoform 2 limits assumed: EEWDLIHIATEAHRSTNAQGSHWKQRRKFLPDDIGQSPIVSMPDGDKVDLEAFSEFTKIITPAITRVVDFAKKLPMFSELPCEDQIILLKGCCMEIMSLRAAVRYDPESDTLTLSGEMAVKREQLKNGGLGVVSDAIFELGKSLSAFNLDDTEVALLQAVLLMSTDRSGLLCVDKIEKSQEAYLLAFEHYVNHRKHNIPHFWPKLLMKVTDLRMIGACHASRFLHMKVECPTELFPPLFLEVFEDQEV
UniProt P10828, whole entry: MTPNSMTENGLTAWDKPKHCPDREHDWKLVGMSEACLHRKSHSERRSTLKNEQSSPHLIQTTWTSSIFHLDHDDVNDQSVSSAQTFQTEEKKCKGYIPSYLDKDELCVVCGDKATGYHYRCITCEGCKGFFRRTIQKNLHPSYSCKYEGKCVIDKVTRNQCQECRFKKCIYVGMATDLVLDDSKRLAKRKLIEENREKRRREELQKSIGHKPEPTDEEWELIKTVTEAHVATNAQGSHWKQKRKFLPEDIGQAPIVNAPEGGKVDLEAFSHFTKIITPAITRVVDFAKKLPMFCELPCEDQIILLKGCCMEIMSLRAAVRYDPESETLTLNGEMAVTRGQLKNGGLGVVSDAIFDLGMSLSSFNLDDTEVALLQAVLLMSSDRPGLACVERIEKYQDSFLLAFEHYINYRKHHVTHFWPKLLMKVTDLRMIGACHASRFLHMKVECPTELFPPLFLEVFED
UniProt P10828, 217-461 limits assumed: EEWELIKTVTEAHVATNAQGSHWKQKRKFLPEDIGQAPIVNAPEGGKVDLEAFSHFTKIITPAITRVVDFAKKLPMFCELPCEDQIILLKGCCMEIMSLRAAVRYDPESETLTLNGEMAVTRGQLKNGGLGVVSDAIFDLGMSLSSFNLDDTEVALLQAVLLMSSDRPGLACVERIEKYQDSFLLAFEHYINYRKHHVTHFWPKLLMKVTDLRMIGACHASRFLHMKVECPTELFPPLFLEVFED
UniProt P19793, whole entry partner: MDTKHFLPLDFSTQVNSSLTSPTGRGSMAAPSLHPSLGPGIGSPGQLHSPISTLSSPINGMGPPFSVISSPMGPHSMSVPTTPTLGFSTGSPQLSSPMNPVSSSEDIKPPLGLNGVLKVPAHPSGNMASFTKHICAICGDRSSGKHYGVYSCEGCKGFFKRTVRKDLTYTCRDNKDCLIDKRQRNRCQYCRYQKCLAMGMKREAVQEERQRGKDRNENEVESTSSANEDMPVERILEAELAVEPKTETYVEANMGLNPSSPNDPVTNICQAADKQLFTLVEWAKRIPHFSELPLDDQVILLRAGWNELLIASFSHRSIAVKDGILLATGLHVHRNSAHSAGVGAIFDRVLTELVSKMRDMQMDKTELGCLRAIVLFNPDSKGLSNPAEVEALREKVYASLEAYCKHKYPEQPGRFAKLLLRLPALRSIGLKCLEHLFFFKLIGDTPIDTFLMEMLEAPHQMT

Structures are written as SMILES.

The nature of data set [1]: Hepatocyte stability assay, rat. To be noted: 1 μM, time point not given. The method, then: (§1) Cryopreserved hepatocytes were taken from the liquid nitrogen tank and thawed quickly in a 37° C. water bath. As soon as the cells pulled away from the vial wall, they were decanted into 48 mL of warm thawing (HT) medium. Cells were centrifuged for 5 minutes at 420 RPM (50 g). After removing the supernatant, the pellets were re-suspended in 4 mL of warm Dulbecco's Modified Eagle Medium (DMEM). Cell density was counted by a hemocytometer.
(§2) The assay was carried out in 96-well microtiter plates. The study compound was incubated at 1 μM with 0.5 million cells/mL hepatocytes in DMEM for 0, 60, 120, and 180 minutes at 37° C. The volume of the incubation mixture was 37 μL with a final DMSO content of 0.1%. At each time point, the incubation was stopped by the addition of 150 μL quenching solution (100% acetonitrile, 0.1% formic acid containing the internal standard bucetin at 15 nM). Subsequently, the mixtures were vortexed for 20 minutes and centrifuged at 4,000 RPM at 10° C. An aliquot of 80 μL of the supernatant was transferred to a clean 96-well plate and analyzed by LC/MS/MS. Midazolam at 1 μM with a final DMSO content of 0.1% was included as a positive control to verify the assay performance.

Data set [2] can be described thus: Microsomal stability assay, human. The following applies: 1 μM, time point not given. The method, then:
(§3) The assay was carried out in 96-well microtiter plates. Test compounds, at a final concentration of 1 μM was incubated at 37° C. with 0.5 mg/mL liver microsomes, and +/−1 mM NADPH in 100 mM potassium phosphate, pH 7.4 buffer with 3.3 mM MgCl2. […] At each of the time points (0, 15, 30 and 60 min), incubation was stopped by adding 150 μL of the quenching solutions (100% acetonitrile, 0.1% formic acid) and subsequently the mixtures were vortexed vigorously for 20 min and centrifuged at 4,000 RPM at 4° C. The supernatants (80 μL) were transferred to a clean 96-well plate and analyzed by LC/MS/MS. Verapamil at 1 μM with a final 0.1% DMSO was included as a positive control to verify assay performance.

The nature of data set [3]: Hepatocyte stability assay, mouse. To be noted: 1 μM, time point not given. The method, then:
as §1, §2

A short description of data set [4]: Microsomal stability assay, rat. The following applies: 1 μM, time point not given. As to the method: as §3
The target of data set [5] is human thyroid receptor alpha ligand-binding domain (THR-α) (Homo sapiens, UniProt P10827). Description: TR-FRET thyroid receptor coactivator assay (THR biochemical assay), alpha. To be noted: read-out: EC50 THR-α (Biochemical Activity), SRC2-2 coactivator peptide.
Data set [6] can be described thus: Microsomal stability assay, mouse. To be noted: 1 μM, time point not given. As to the method: as §3
In a further data set the target is THR beta (Homo sapiens, UniProt P10828). As to the kind of experiment: HEK293T THRbeta/RXR luciferase reporter assay. Background: A reporter such as luciferase makes a cellular process visible.
The target in another data set is THR alpha (Homo sapiens, UniProt P10827). Description: HEK293T THRalpha/RXR luciferase reporter assay. The following applies: read-out: EC50 THR-α (HEK 293 Activity); HEK293T TRE-luciferase reporter, 18-24 h.
Data set [7] is described as follows: Hepatocyte stability assay, human. To be noted: 1 μM, time point not given. As to the method: as §1, §2
The target in data set [8] is human thyroid receptor beta ligand-binding domain (THR-β) (Homo sapiens, UniProt P10828). Description: TR-FRET thyroid receptor beta coactivator assay (THR biochemical assay). In general terms: Time-resolved FRET reads energy transfer from a long-lived donor to a nearby acceptor.

Regarding `CC(c1cc(Oc2c(Cl)cc(-n3nc(N)c(=O)[nH]c3=O)cc2Cl)n[nH]c1=O)C1CC1` (single isomer, unassigned) [Compound 1a], the “Hepatocytes % Remaining” value is given as “(106) %” in [1], “(101) %” in [3] and “(86) %” in data set [7]. Also, the “Liver Microsomes % Remaining” value is “(93) %” in data set [2], “(91) %” in data set [4] and “(92) %” in data set [6]. Besides, the EC50 in data set [5] came out at 399 nM; at THR beta (read-out: EC50 THR-β (HEK 293 Activity), HEK293T TRE-luciferase reporter, 18-24 h), 110 nM; on THR alpha it was 715 nM; in data set [8] (read-out: EC50 THR-β (Biochemical Activity), TR-FRET, SRC2-2 coactivator peptide) it was 63 nM. In addition, the THR-β Selectivity (HEK 293 Activity) at THR beta (THR-β over THR-α, HEK293T reporter) was 6.5. Further, the THR-β Selectivity (Biochemical Activity) in data set [8] (THR-β over THR-α, TR-FRET assay) was 6.

The term EC50 denotes the midpoint of the concentration-response curve.
